Earlier results on one substance are cited in patent US20020037864A1, “2'-Propionate clarithromycin dodecyl sulfate and its preparation and pharmaceutical composition containing the same” (priority 2000, published 2002).

The subject of the series is mice. The settings on record: orally administrated to mice; cited from earlier work.

For “2′-propionate erythromycin dodecyl sulfate [etothromycin]”, the LD50 result is “above 6.45 g/kg”.
